Out of some 210,000 compounds screened, about 880 (0.42%) were called active. The list comes from a sample in which actives are over-represented; it also holds similar structures and randomly drawn compounds. A number with no mark means an inactive call.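 The calls were made as follows: active = replicate mean at 85% of control or lower with very high polarization wells dropped (limit read from the data); inactive = the rest.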
molecular target: Guanine nucleotide-binding protein G(i) subunit alpha-3 (Rattus norvegicus) (UniProt P08753); test: inhibitors of GIV peptide binding to Galpha-i3, primary screen, biochemical, fluorescence polarization, FITC-GIV GBA peptide, rat Galphai3 (AID 1224905); settings: 90 min, active compounds read low, scaled: aluminum fluoride 0%, vehicle 100%;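 also: lower values mean more displacement of the GIV peptide from Galpha-i3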

By UniProt entry, the sequences of proteins in these tests, tags left out.
UniProt P08753, whole entry, looked up: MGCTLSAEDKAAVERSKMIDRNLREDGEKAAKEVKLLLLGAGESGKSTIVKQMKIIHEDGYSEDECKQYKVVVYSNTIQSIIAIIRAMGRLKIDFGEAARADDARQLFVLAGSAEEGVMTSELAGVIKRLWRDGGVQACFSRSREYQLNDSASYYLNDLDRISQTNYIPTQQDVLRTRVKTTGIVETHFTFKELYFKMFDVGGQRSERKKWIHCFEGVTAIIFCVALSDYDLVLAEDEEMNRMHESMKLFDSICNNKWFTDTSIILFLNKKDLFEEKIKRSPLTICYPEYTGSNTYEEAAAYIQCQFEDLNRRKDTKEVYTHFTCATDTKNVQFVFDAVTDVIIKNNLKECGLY

| SMILES | percent of control (FP) |
| --- | --- |
| O=C(CSc1nnc2ccc(C(=O)NCc3ccccc3)cn12)Nc1ccccc1Br | 95.4% |
| CC(=O)Nc1cccc(NC(=O)c2sc3ncn(CC(=O)Nc4ccc(C)c(Cl)c4)c(=O)c3c2C)c1 | 107% |
| CC1(C)CC(=O)C2=C(C1)OC1=C(C(=O)CC(C)(C)C1)C2c1ccc(Cl)cc1 | 107% |
| Cn1cc(S(=O)(=O)N2CCCCC2)cc1C(=O)N1CCc2ccccc2C1 | 107% |
| COC(=O)c1ccc(C2C(S(=O)(=O)c3ccccc3)=C(O)C(=O)N2c2cccc(C)c2)cc1 (stereo not drawn) | 101% |
| CCCCN1C(=O)C(C)(C(=O)N2CCN(C)CC2)Oc2cccnc21 (stereo not drawn) | 101% |
| O=C(CCN1CCOCC1)Nc1cc(C(=O)Nc2ccc(F)c(F)c2)ccc1N1CC2CC(C1)c1cccc(=O)n1C2 (stereo not drawn) | 115% |
| CCCCN(C)C(=O)CCn1c(=S)[nH]c2c(oc3ccccc32)c1=O | 100% |
| O=C(O)c1c2ccccc2[nH]c2c1oc1cc(=O)ccc12 | 81.8% (active) |
| COC(=O)c1c(C)c(=O)[nH]c2ccccc12 | 102% |
| CCn1cc(CCN2CCN(S(=O)(=O)c3ccc4c(c3)CCC4)CC2)c2cccnc21 | 108% |
| CCN(Cc1ccccc1)C(=O)Cn1c(=O)n(CCc2ccccc2)c(=O)c2ccccc21 | 102% |
| O=S(=O)(c1cc(-c2noc(C3CC3)n2)cs1)N1CCN(c2ccc(Cl)cc2)CC1 | 104% |
| CCOc1ccc(NC(=O)Nc2ccc(Cn3cnc(-c4nc(-c5ccc(Cl)cc5)no4)c3)cc2)cc1 | 102% |
| COC(=O)Cn1nc2c(-c3nc(-c4ccc(Cl)cc4)no3)cccn2c1=O | 53.6% (active) |
| C=CCNc1ncccc1-c1nc(-c2ccc(Cl)cc2)no1 | 96.7% |
| CCCCN(CC)C(=O)c1c[nH]c2ccc(S(=O)(=O)N(C)c3ccc(Br)cc3)cc2c1=O | 97.2% |
| O=C1Nc2ccccc2O/C1=C\c1ccc(C(=O)NCc2ccco2)cc1 | 103% |
| CCOc1ccc(NC(=O)Nc2cccc(OCc3cc(=O)n4ccccc4n3)c2)cc1 | 100% |
| Cn1c(SCC(N)=O)nnc1-c1cc2ccccc2o1 | 98.6% |
| O=c1c(-c2cc3ccccc3o2)[n+]([O-])c2ccccc2n1O | 9.86% (active) |

| SMILES | percent of control (FP) |
| --- | --- |
| COc1ccc2oc(=O)cc(-c3cc4ccccc4o3)c2c1 | 104% |
| Cc1ccc([N+](=O)[O-])cc1S(=O)(=O)n1c(SCc2ccccc2F)nc2ccccc21 | 104% |
| COc1ccc(-c2ocnc2C(=O)O)cc1 | 108% |
| COc1cccc(N=Nc2c(O)[nH]c(=O)[nH]c2=O)c1 | 100% |
| COc1ccc(N=Nc2c(-c3ccc(OC)cc3)[nH]oc2=O)cc1 | 49% (active) |
| Cc1ccc(-c2nnc3ccccc3c2C(=O)Nc2ccc3c(c2)OCCO3)cc1 | 101% |
| COC(=O)/C=C1\Nc2ccccc2SC1=O | 103% |
| O=C1c2ccccc2S(=O)(=O)N1CC(O)COc1ccc2ccccc2c1 (stereo not drawn) | 103% |
| Cn1c(=O)c(C(=O)NCCc2ccc(Cl)cc2)nc2ccccc21 | 105% |
| C/C(=N\c1nc2ccccc2n1C)c1cc(Cl)ccc1O | 49.3% (active) |
| Cn1c(NC(=O)c2ccccc2)nc2ccccc21 | 97.8% |
| Cn1cc(C(=O)Nc2ccc(Br)cc2)c2[nH]c(=O)n(-c3ccccc3)c(=O)c21 | 101% |
| COc1ccc(NC(=O)c2nn(C)c3c2CSc2ccc(Cl)cc2-3)cc1OC | 102% |
| COc1ccc(NC(=O)C2CCN(S(=O)(=O)c3cc4c(cc3C)NC(=O)CO4)CC2)cc1OC | 98% |
| O=S(=O)(c1ccccc1Cl)N1CCN(c2ncnc3c2nnn3-c2ccc(F)cc2)CC1 | 98.7% |
| Cc1cc(C)c2c(n1)sc1c(=O)n(C)cnc12 | 103% |
| Cc1cc(C)c2c(N)c(-c3n[nH]c(=S)n3C)sc2n1 | -53.5% (active) |
| COc1ccc(-c2cc(-c3nc4c5sc6nc(C)cc(C)c6c5ncn4n3)[nH]n2)cc1 | 102% |
| Cc1ccc(N2C(=O)C3C4c5ccccc5C(C=O)(c5ccccc54)C3C2=O)c(Br)c1 (stereo not drawn) | 123% |
| COCCNC(=O)c1ccccc1NC(=O)c1ccc(F)cc1 | 104% |
| COC(=O)CN1C(c2ccccc2)=Nc2ccc(Br)cc2C1c1ccccc1 (stereo not drawn) | 107% |

| SMILES | percent of control (FP) |
| --- | --- |
| COc1ccc(CNS(=O)(=O)c2ccc(F)c(C(=O)Nc3ccc(Br)cc3F)c2)cc1 | 111% |
| Cc1nn(CC(=O)NCCc2c[nH]c3ccccc23)c(=O)c2noc(C)c12 | 98.7% |
| N#C/C(=C/c1ccc(N2CCCCC2)o1)C(=O)NCCc1c[nH]c2ccccc12 | -90.3% (active) |
| O=C(NCCc1c[nH]c2ccccc12)c1cc(=O)nc2sc(N3CCCC3)nn12 | 106% |
| CCCCN(CC)c1ncnc2ccc(C)cc12 | 101% |
| Cc1ccc2nc(/C(C#N)=C/c3ccccc3F)[nH]c2c1 | 113% |
| N#CC(C#N)=Cc1ccc(-c2cccc(C(=O)O)c2)o1 | 102% |
| Cc1ccc2nc(/C(C#N)=C/c3ccc(-c4ccc(C(=O)OC(C)C)cc4)o3)[nH]c2c1 | -57.6% (active) |
| O=C(OCCN1CCCCC1)C1COc2ccccc2O1 (stereo not drawn) | 102% |
| CN(Cc1ccccc1)S(=O)(=O)c1ccc2c3c(cccc13)C(=O)N2 | 104% |
| CC1CN(S(=O)(=O)c2ccc3c4c(cccc24)C(=O)N3)CC(C)O1 (stereo not drawn) | 96.8% |
| Nc1ccc2c3c(cccc13)C(=O)NC2=O | -7.99% (active) |
| C#CCSc1c(CCCC)cnc2c1c(=O)n(C)c(=O)n2C | 106% |
| COC(CNC(=O)c1cn(C)c2ccc(S(=O)(=O)N3CCCC3)cc2c1=O)OC | 106% |
| CCOc1ccc(/C(O)=C2/C(=O)C(=O)N(CCN3CCOCC3)C23C(=O)N(C)c2ccccc23)cc1 (stereo not drawn) | 107% |
| Cc1cc(Br)ccc1NC(=O)Cn1c2ccccc2c(=O)c2ccccc21 | 99.8% |
| CCN1C(=O)c2cccc3c(NC(=S)NC(=O)c4ccccc4)ccc1c23 | -23.8% (active) |
| CCN1C(=O)c2cccc3c(S(=O)(=O)N4CCN(CCO)CC4)ccc1c23 | 108% |
| CCN1C(=O)c2cccc3c(S(=O)(=O)N4CCc5ccccc54)ccc1c23 | 101% |
| Cc1cc(C)n(C(=O)c2sccc2S(=O)(=O)N(C)c2ccc(C)c(Cl)c2)n1 | 95.4% |
| O=C(NCC(c1ccccc1Cl)N1CCCC1)c1cc(-c2ccccc2)on1 (stereo not drawn) | 113% |
